Measured values taken from IntAct's records for PubMed 16525023.

B1: RAC-alpha serine/threonine-protein kinase (Homo sapiens), P31749 (parent)
chain: MSDVAIVKEGWLHKRGEYIKTWRPRYFLLKNDGTFIGYKERPQDVDQREAPLNNFSVAQCQLMKTERPRPNTFIIRCLQWTTVIERTFHVETPEEREEWTTAIQTVADGLKKQEEEEMDFRSGSPSDNSGAEEMEVSLAKPKHRVTMNEFEYLKLLGKGTFGKVILVKEKATGRYYAMKILKKEVIVAKDEVAHTLTENRVLQNSRHPFLTALKYSFQTHDRLCFVMEYANGGELFFHLSRERVFSEDRARFYGAEIVSALDYLHSEKNVVYRDLKLENLMLDKDGHIKITDFGLCKEGIKDGATMKTFCGTPEYLAPEVLEDNDYGRAVDWWGLGVVMYEMMCGRLPFYNQDHEKLFELILMEEIRFPRTLGPEAKSLLSGLLKKDPKQRLGGGSEDAKEIMQHRFFAGIVWQHVYEKKLSPPFKPQVTSETDTRYFDEEFTAQMITITPPDQDDSMECVDSERRPHFPQFSYSASGTA
partner: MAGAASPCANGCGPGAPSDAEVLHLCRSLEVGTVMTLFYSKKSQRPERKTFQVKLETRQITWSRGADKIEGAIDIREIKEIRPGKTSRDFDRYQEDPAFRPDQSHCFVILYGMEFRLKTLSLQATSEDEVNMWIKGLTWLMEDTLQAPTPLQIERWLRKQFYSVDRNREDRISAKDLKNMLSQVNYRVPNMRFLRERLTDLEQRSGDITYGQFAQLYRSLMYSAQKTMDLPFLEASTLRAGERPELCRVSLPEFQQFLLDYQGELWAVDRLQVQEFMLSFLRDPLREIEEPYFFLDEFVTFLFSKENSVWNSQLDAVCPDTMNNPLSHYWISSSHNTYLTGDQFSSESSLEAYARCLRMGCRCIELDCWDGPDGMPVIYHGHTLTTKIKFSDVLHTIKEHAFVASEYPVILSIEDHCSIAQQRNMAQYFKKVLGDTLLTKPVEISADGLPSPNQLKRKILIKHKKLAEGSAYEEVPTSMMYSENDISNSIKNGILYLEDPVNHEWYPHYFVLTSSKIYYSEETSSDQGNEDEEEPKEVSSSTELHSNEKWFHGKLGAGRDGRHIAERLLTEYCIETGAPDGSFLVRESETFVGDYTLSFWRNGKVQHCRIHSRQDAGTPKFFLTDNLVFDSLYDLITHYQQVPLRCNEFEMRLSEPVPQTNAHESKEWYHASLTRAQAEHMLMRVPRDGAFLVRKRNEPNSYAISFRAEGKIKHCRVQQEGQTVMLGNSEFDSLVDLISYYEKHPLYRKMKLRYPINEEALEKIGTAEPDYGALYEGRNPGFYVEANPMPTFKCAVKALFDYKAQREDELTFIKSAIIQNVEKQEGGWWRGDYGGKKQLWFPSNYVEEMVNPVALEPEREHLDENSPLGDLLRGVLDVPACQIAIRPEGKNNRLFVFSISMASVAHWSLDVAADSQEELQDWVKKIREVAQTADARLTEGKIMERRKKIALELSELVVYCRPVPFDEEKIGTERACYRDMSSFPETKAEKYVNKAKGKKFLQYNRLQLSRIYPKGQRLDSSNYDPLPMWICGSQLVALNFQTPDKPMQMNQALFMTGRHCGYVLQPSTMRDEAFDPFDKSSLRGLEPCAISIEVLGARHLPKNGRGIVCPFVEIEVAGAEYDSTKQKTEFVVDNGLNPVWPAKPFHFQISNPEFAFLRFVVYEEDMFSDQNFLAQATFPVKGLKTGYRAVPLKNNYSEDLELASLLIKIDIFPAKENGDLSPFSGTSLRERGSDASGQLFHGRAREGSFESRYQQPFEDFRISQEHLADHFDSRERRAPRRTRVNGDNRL

Variants of: B1
Conditions: with plcg1_human PLCG1, P19174

effect of a mutation on the interaction | Variant
decreasing interaction | P424A
decreasing interaction | P467A
